Test results taken from patent publication US6974837B2, “Compositions comprising sibutramine metabolites in combination with phosphodiesterase inhibitors” (Sepracor Inc., priority 1999, dated 2005).
pIC50: −log10 of the molar value.

Biological target: nonselective muscarinic receptor
Assay: Binding at the nonselective muscarinic receptor
Settings: rat cerebral cortex
Protocol: IC50 values (concentration required to inhibit 50% specific binding) were then determined by nonlinear regression analysis of the curves and tabulated below.

CC(C)CC(N(C)C)C1(c2ccc(Cl)cc2)CCC1 (racemic) [(R/S)-Sibutramine, [N-1-[1-(4-chlorophenyl)cyclobutyl]-3-methylbutyl]-N,N-dimethylamine, reference compound] was tested, and the pIC50 was 5.58.
